Assay results from patent US20240360179A1, “STAPLED PEPTIDES AND METHODS THEREOF” (FOG PHARMACEUTICALS, INC., priority 2021, published 2024).

Chains of the proteins cited; added tags and fusions are not shown.
UniProt P35222, whole entry: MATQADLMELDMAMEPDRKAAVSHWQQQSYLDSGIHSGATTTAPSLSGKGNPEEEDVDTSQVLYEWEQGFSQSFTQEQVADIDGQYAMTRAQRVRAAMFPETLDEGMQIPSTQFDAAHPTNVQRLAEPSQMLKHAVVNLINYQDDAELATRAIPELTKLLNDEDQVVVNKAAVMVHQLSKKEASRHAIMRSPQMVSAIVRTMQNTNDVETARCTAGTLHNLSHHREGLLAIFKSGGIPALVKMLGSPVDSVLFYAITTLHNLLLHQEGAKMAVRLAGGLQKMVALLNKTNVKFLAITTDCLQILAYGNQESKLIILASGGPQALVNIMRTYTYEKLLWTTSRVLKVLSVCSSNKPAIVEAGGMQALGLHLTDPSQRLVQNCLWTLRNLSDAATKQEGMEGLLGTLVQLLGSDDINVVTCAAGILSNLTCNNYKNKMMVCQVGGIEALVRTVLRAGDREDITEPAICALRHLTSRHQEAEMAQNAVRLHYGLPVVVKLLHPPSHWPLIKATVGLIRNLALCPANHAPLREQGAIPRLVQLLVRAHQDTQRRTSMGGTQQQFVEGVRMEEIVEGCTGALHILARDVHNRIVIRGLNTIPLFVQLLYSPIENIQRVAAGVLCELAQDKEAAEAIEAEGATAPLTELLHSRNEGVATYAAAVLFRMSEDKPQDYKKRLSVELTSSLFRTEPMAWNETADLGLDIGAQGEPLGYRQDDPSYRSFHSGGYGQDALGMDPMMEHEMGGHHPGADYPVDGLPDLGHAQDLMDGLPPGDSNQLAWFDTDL

Legend:
[1] = molecular target: beta-catenin/TCF4 interaction (Homo sapiens, UniProt P35222); assay: cell-based; set-up: host or cells: HEK293; conditions: NanoBRET Abs IC50 (uM)
[2] = molecular target: T1, full-length B-Catenin (Uniprot ID P35222) (Homo sapiens, UniProt P35222); assay: biochemical; type: binding; conditions: beta-Catenin FP IC50 (nM), competition fluorescence polarization
T1 construct: 10 nM full-length B-Catenin (Uniprot ID P35222)

SMILES	IC50 [1]	IC50 [2]
CC[C@H](C)[C@@H]1NC(=O)[C@H](CC(=O)O)NC(=O)[C@]2(CC=CCCCC3(CCCC=CCCCOC(=O)N4CC[C@@]5(C4)NC(=O)[C@H](CCCCNC(=O)CC[C@@H](C(=O)N[C@@H](C)C(N)=O)NC(=O)[C@H](Cc4csc6ccccc46)NC(=O)[C@H](Cc4ccsc4)NC5=O)NC(=O)[C@H](Cc4ccccc4)NC(=O)[C@H](C)NC(=O)C(C)(C)NC(=O)[C@H](Cc4cccc(C(=O)O)c4)NC(=O)[C@H](CC(=O)O)NC3=O)NC1=O)CCCN2C(C)=O (single isomer, unassigned) [I-247, Ac-PL3-Asp-Ile-B5-Asp-3COOHF-Aib-Ala-Phe-Lys*3-PyrS2-3Thi-BztA-GlnR*3-Ala-NH2]	1.5 to 3 µM	< 50 nM
CC(=O)N1CCC[C@]12CC=CCCCC1(CCCC=CCCCOC(=O)N3CC[C@@]4(C3)NC(=O)[C@H](CCCCNC(=O)CC[C@@H](C(=O)N[C@@H](C)C(N)=O)NC(=O)[C@H](Cc3csc5ccccc35)NC(=O)[C@H](Cc3ccsc3)NC4=O)NC(=O)[C@H](Cc3ccccc3)NC(=O)[C@H](C)NC(=O)C(C)(C)NC(=O)[C@H](Cc3cccc(C(=O)O)c3)NC(=O)[C@H](CC(=O)O)NC1=O)NC(=O)[C@H](C1CCCCC1)NC(=O)[C@H](CC(=O)O)NC2=O (single isomer, unassigned) [I-253, Ac-PL3-Asp-Chg-B5-Asp-3COOHF-Aib-Ala-Phe-Lys*3-PyrS2-3Thi-BztA-GlnR*3-Ala-NH2]	< 1.5 µM	< 50 nM
CC[C@@H]1NC(=O)[C@]23CCN(C2)C(=O)OCCCC=CCCCC2(CCCC=CC[C@]4(CCCN4C(C)=O)C(=O)N[C@@H](CC(=O)O)C(=O)N[C@@H](CC(C)(C)C)C(=O)N2)C(=O)N[C@@H](CC(=O)O)C(=O)N[C@@H](Cc2cccc(C(=O)O)c2)C(=O)NC(C)(C)C(=O)N[C@@H](C)C(=O)N[C@@H](Cc2ccccc2)C(=O)N[C@@H](CCCCNC(=O)CC[C@@H](C(=O)N[C@@H](C)C(N)=O)NC(=O)[C@H](Cc2csc4ccccc24)NC1=O)C(=O)N3 (single isomer, unassigned) [I-268, Ac-PL3-Asp-Npg-B5-Asp-3COOHF-Aib-Ala-Phe-Lys*3-PyrS2-Abu-BztA-GlnR*3-Ala-NH2]	> 10 µM	50 to 200 nM
CCCC[C@@H]1NC(=O)[C@]23CCN(C2)C(=O)OCCCC=CCCCC2(CCCC=CC[C@]4(CCCN4C(C)=O)C(=O)N[C@@H](CC(=O)O)C(=O)N[C@@H](CC(C)(C)C)C(=O)N2)C(=O)N[C@@H](CC(=O)O)C(=O)N[C@@H](Cc2cccc(C(=O)O)c2)C(=O)NC(C)(C)C(=O)N[C@@H](C)C(=O)N[C@@H](Cc2ccccc2)C(=O)N[C@@H](CCCCNC(=O)CC[C@@H](C(=O)N[C@@H](C)C(N)=O)NC(=O)[C@H](Cc2csc4ccccc24)NC1=O)C(=O)N3 (single isomer, unassigned) [I-271, Ac-PL3-Asp-Npg-B5-Asp-3COOHF-Aib-Ala-Phe-Lys*3-PyrS2-nLeu-BztA-GlnR*3-Ala-NH2]	3 to 10 µM	< 50 nM
CC(=O)N1CCC[C@]12CC=CCCCC1(CCCC=CCCCOC(=O)N3CC[C@@]4(C3)NC(=O)[C@H](CCCCNC(=O)CC[C@@H](C(=O)N[C@@H](C)C(N)=O)NC(=O)[C@H](Cc3csc5ccccc35)NC(=O)[C@H](CC(C)C)NC4=O)NC(=O)[C@H](Cc3ccccc3)NC(=O)[C@H](C)NC(=O)C(C)(C)NC(=O)[C@H](Cc3cccc(C(=O)O)c3)NC(=O)[C@H](CC(=O)O)NC1=O)NC(=O)[C@H](CC(C)(C)C)NC(=O)[C@H](CC(=O)O)NC2=O (single isomer, unassigned) [I-273, Ac-PL3-Asp-Npg-B5-Asp-3COOHF-Aib-Ala-Phe-Lys*3-PyrS2-Leu-BztA-GlnR*3-Ala-NH2]	> 10 µM	50 to 200 nM
CC(=O)N1CCC[C@]12CC=CCCCC1(CCCC=CCCCOC(=O)N3CC[C@@]4(C3)NC(=O)[C@H](CCCCNC(=O)CC[C@@H](C(=O)N[C@@H](C)C(N)=O)NC(=O)[C@H](Cc3csc5ccccc35)NC(=O)[C@H](CCC(C)C)NC4=O)NC(=O)[C@H](Cc3ccccc3)NC(=O)[C@H](C)NC(=O)C(C)(C)NC(=O)[C@H](Cc3cccc(C(=O)O)c3)NC(=O)[C@H](CC(=O)O)NC1=O)NC(=O)[C@H](CC(C)(C)C)NC(=O)[C@H](CC(=O)O)NC2=O (single isomer, unassigned) [I-275, Ac-PL3-Asp-Npg-B5-Asp-3COOHF-Aib-Ala-Phe-Lys*3-PyrS2-hLeu-BztA-GlnR*3-Ala-NH2]	3 to 10 µM	< 50 nM
CC(=O)N1CCC[C@]12CC=CCCCC1(CCCC=CCCCOC(=O)N3CC[C@@]4(C3)NC(=O)[C@H](CCCCNC(=O)CC[C@@H](C(=O)N[C@@H](C)C(N)=O)NC(=O)[C@H](Cc3csc5ccccc35)NC(=O)[C@H](CC(C)(C)C)NC4=O)NC(=O)[C@H](Cc3ccccc3)NC(=O)[C@H](C)NC(=O)C(C)(C)NC(=O)[C@H](Cc3cccc(C(=O)O)c3)NC(=O)[C@H](CC(=O)O)NC1=O)NC(=O)[C@H](CC(C)(C)C)NC(=O)[C@H](CC(=O)O)NC2=O (single isomer, unassigned) [I-277, Ac-PL3-Asp-Npg-B5-Asp-3COOHF-Aib-Ala-Phe-Lys*3-PyrS2-Npg-BztA-GlnR*3-Ala-NH2]	> 10 µM	50 to 200 nM
CC(=O)N1CCC[C@]12CC=CCCCC1(CCCC=CCCCOC(=O)N3CC[C@@]4(C3)NC(=O)[C@H](CCCCNC(=O)CC[C@@H](C(=O)N[C@@H](C)C(N)=O)NC(=O)[C@H](Cc3csc5ccccc35)NC(=O)[C@H](Cc3ccccc3)NC4=O)NC(=O)[C@H](Cc3ccccc3)NC(=O)[C@H](C)NC(=O)C(C)(C)NC(=O)[C@H](Cc3cccc(C(=O)O)c3)NC(=O)[C@H](CC(=O)O)NC1=O)NC(=O)[C@H](CC(C)(C)C)NC(=O)[C@H](CC(=O)O)NC2=O (single isomer, unassigned) [I-279, Ac-PL3-Asp-Npg-B5-Asp-3COOHF-Aib-Ala-Phe-Lys*3-PyrS2-Phe-BztA-GlnR*3-Ala-NH2]	3 to 10 µM	< 50 nM
CC(=O)N1CCC[C@]12CC=CCCCC1(CCCC=CCCCOC(=O)N3CC[C@@]4(C3)NC(=O)[C@H](CCCCNC(=O)CC[C@@H](C(=O)N[C@@H](C)C(N)=O)NC(=O)[C@H](Cc3csc5ccccc35)NC(=O)[C@H](CC3CC3)NC4=O)NC(=O)[C@H](Cc3ccccc3)NC(=O)[C@H](C)NC(=O)C(C)(C)NC(=O)[C@H](Cc3cccc(C(=O)O)c3)NC(=O)[C@H](CC(=O)O)NC1=O)NC(=O)[C@H](CC(C)(C)C)NC(=O)[C@H](CC(=O)O)NC2=O (single isomer, unassigned) [I-281, Ac-PL3-Asp-Npg-B5-Asp-3COOHF-Aib-Ala-Phe-Lys*3-PyrS2-Cpa-BztA-GlnR*3-Ala-NH2]	3 to 10 µM	< 50 nM

The remaining lines, values ahead:

IC50 [1]	IC50 [2]	SMILES
> 10 µM	< 50 nM	CC(=O)N1CCC[C@]12CC=CCCCC1(CCCC=CCCCOC(=O)N3CC[C@@]4(C3)NC(=O)[C@H](CCCCNC(=O)CC[C@@H](C(=O)N[C@@H](C)C(N)=O)NC(=O)[C@H](Cc3csc5ccccc35)NC(=O)[C@H](Cc3ccccc3C(F)(F)F)NC4=O)NC(=O)[C@H](Cc3ccccc3)NC(=O)[C@H](C)NC(=O)[C@H](C)NC(=O)[C@H](CN(CC(=O)O)CC(F)(F)F)NC(=O)[C@H](CC(=O)O)NC1=O)NC(=O)[C@H](CC(C)(C)C)NC(=O)[C@H](CC(N)=O)NC2=O (single isomer, unassigned) [I-113, Ac-PL3-Asn-Npg-B5-Asp-TfeGA-Ala-Ala-Phe-Lys*3-PyrS2-2F3MeF-BztA-GlnR*3-Ala-NH2]
1.5 to 3 µM	< 50 nM	CC(=O)N1CCC[C@]12CC=CCCCC1(CCCC=CCCCOC(=O)N3CC[C@@]4(C3)NC(=O)[C@H](CCCCNC(=O)CC[C@@H](C(=O)N[C@@H](C)C(N)=O)NC(=O)[C@H](Cc3csc5ccccc35)NC(=O)[C@H](Cc3ccccc3C(F)(F)F)NC4=O)NC(=O)[C@H](Cc3ccccc3)NC(=O)[C@H](C)NC(=O)C(C)(C)NC(=O)[C@H](CN(CC(=O)O)CC(F)(F)F)NC(=O)[C@H](CC(=O)O)NC1=O)NC(=O)[C@H](CC(C)(C)C)NC(=O)[C@H](CC(=O)O)NC2=O (single isomer, unassigned) [I-120, Ac-PL3-Asp-Npg-B5-Asp-TfeGA-Aib-Ala-Phe-Lys*3-PyrS2-2F3MeF-BztA-GlnR*3-Ala-NH2]
> 10 µM	< 50 nM	CC(=O)N1CCC[C@]12CC=CCCCC1(CCCC=CCCCOC(=O)N3CC[C@@]4(C3)NC(=O)[C@H](CCCCNC(=O)CC[C@@H](C(=O)N[C@@H](C)C(N)=O)NC(=O)[C@H](Cc3csc5ccccc35)NC(=O)[C@H](Cc3ccccc3C(F)(F)F)NC4=O)NC(=O)[C@H](Cc3ccccc3)NC(=O)[C@H](C)NC(=O)[C@H](C(C)C)NC(=O)[C@H](CN(CC(=O)O)CC(F)(F)F)NC(=O)[C@H](CC(=O)O)NC1=O)NC(=O)[C@H](CC(C)(C)C)NC(=O)[C@H](CC(=O)O)NC2=O (single isomer, unassigned) [I-124, Ac-PL3-Asp-Npg-B5-Asp-TfeGA-Val-Ala-Phe-Lys*3-PyrS2-2F3MeF-BztA-GlnR*3-Ala-NH2]
3 to 10 µM	< 50 nM	CC(=O)N1CCC[C@]12CC=CCCCC1(CCCC=CCCCOC(=O)N3CC[C@@]4(C3)NC(=O)[C@H](CCCCNC(=O)CC[C@@H](C(=O)NC(C)(C)C(N)=O)NC(=O)[C@H](Cc3csc5ccccc35)NC(=O)[C@H](Cc3ccccc3C(F)(F)F)NC4=O)NC(=O)[C@H](Cc3ccccc3)NC(=O)[C@H](C)NC(=O)[C@H](C)NC(=O)[C@H](CN(CC(=O)O)CC(F)(F)F)NC(=O)[C@H](CC(=O)O)NC1=O)NC(=O)[C@H](CC(C)(C)C)NC(=O)[C@H](CC(=O)O)NC2=O (single isomer, unassigned) [I-126, Ac-PL3-Asp-Npg-B5-Asp-TfeGA-Ala-Ala-Phe-Lys*3-PyrS2-2F3MeF-BztA-GlnR*3-Aib-NH2]
> 10 µM	200 to 750 nM	CC(=O)N1CCC[C@]12CC=CCCCC1(CCCC=CCCCOC(=O)N3CC[C@@]4(C3)NC(=O)[C@H](CCCCNC(=O)CC[C@@H](C(=O)N[C@@H](C)C(N)=O)NC(=O)[C@H](Cc3csc5ccccc35)NC(=O)[C@H](C)NC4=O)NC(=O)[C@H](Cc3ccccc3)NC(=O)[C@H](C)NC(=O)C(C)(C)NC(=O)[C@H](Cc3cccc(C(=O)O)c3)NC(=O)[C@H](CC(=O)O)NC1=O)NC(=O)[C@H](CC(C)(C)C)NC(=O)[C@H](CC(=O)O)NC2=O (single isomer, unassigned) [I-266, Ac-PL3-Asp-Npg-B5-Asp-3COOHF-Aib-Ala-Phe-Lys*3-PyrS2-Ala-BztA-GlnR*3-Ala-NH2]
